One assay concerns C2C12 cells. Nature of the assay: Lactate production in C2C12 myotubes. The class given is cell-based. The conditions noted are these: 5 mg/mL (IV-1 paste 0.25, 2.5 and 5 mg/mL), 2% horse serum, versus untreated control. As for the experimental part: Lactate is known to promote myoblast differentiation and myotube hypertrophy (See, e.g. Tsukamoto S et al., Int. J. Molec. Sci. 19:3649 (2018)). Thus, measuring lactate production in myoblasts can be an indicator of both differentiation and growth in muscle. C12C2 myoblasts were differentiated to myotubes for 5 days in vitro in 2% horse serum (HS) differentiation medium. At day 5, various treatments were added to the cells. Based on the assessed EC50 values by glucose utilization the plasma fractions were added at 5 mg/mL to the media, except for IV-1 paste which was added at three different concentrations (0.25, 2.5, and 5 mg/mL). Also at day 5, positive control metformin was added (1 mM). At day 6, the cells were again treated with metformin and oligomycin (250 nM) as positive controls and 2-Deoxy-D-Glucose (2-DG, 100 nM) as negative control for either three (3) hours or five (5) hours (FIGS. 21A and 21B, respectively). After 3 or 5 hours, the media was deproteinized and subsequently, the amount of lactate produced was measured by an enzymatic reaction.

Another assay concerns tibialis anterior muscle. Kind of assay: Muscle recovery in barium chloride induced injury model, twitch force. It is filed as in vivo, C57BL/6 mice. The conditions noted are these: day 17, 7 consecutive days i.v., compared to control vehicle, p<0.05. As to the method:
FIG. 17A is a representation of an experimental protocol to investigate muscle recovery from an injury using different treatments. To induce muscle injury in vivo, C57BL/6 mice were anesthetized by isoflurane inhalation. At day 2 of test article dosing, left tibialis anterior muscles were injected with 50 μL of BaCl2 solution (Sigma-Aldrich B0750, 1.2% in sterile 0.9% NaCl) throughout the length of the tibia with a 30-gauge insulin syringe. Right tibialis anterior muscles were injected with 50 μL of saline as contralateral uninjured controls.
Left hindlimbs were wrapped with 2 layers of surgical tape and sports tape (Durapore 3M 1538-2 and Hampton Adams 8542028768) during the immobilization phase for 10 days and unwrapped during the recovery phase for 10 days. […] Animals were monitored daily for toe circulation and tape integrity.
The hindlimb of each anesthetized mouse was prepare for torque measurements above the ankle as described previously (Gerlinger-Romero F, et al., J. Vis. Exp. 58696 (2019), doi:10.3791/58696)). Twitch force and tetanus force were recorded with the settings as described previously. […] Both the left and hind limbs were recorded prior to dosing for baseline measurements, and values at the end of the study (day 17) compared to the initial readings (day 0). […]

Take rhAlbumin: recombinant human albumin: the lactate production result in the assay on C2C12 cells (3 hours) and in the assay with C2C12 cells (5 hours) was “no increase in lactate production” each time. Moreover, the “twitch force, maximal torque” value in the assay on tibialis anterior muscle was “failed to produce a change maximal torque that was significantly increased”.

These data come from US12059453B2, “Blood plasma fractions for use in muscle regeneration” (Alkahest, Inc., priority 2019, dated 2024).
